Earlier results on one substance are cited in paper PMC3463529.

For the data set, the target named is GFP (Aequorea victoria) [GFP: P42212]. The data set is described as follows: analytical ultracentrifugation. The note with it: cited from earlier work.

Take GFP (from UniProt P42212): the Kd is 100 µM.

What is called Kd is the free concentration of one partner at which half of the binding sites on the other are occupied at equilibrium, for simple one-to-one binding.
